The numbers were not newly measured in patent US12527876B2, “Insulin-like growth factor-chemotherapeutic conjugate for treating myelodysplastic syndrome” (IGF Oncology, LLC, priority 2017, dated 2026), which cites them from elsewhere.

The series concerns soluble IGF binding proteins. The note with it: compared to wild-type IGF-1; Francis 1992, Tomas 1993, U.S. Pat. No. 4,876,242; cited from earlier work.

For the substance “R3-IGF: human IGF-1 with arginine replacing glutamic acid at position 3, SEQ ID NO: 6 [reference compound]”, the “binding affinity to the soluble IGF binding proteins” value is recorded as “reduced binding affinity”.
